This note sets out measurements from PubChem BioAssay AID900 (National Center for Advancing Translational Sciences (NCATS), 2007).

Only a part is listed here, and it is no random draw. Activity calls are given as the source filed them. Calls follow the shape of the dose curve; as a rule, active = well fitted inhibition curve with a large enough effect; inconclusive = small, poorly fitted or top-dose-only effect; inactive = flat fitted curve, though single readings scatter.

The test concerns the target Caspase-1 (Homo sapiens) (UniProt P29466). In words: qHTS Assay for Allosteric/Competitive Inhibitors of Caspase-1.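 Also: plate controls were vehicle for no effect and no substrate for full effect.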 Conditions: Caspase-1 enzyme, Ac-WEHD-AFC fluorogenic rate; at 57.5 µM (top of the series) unless noted. From the text:
NIH Molecular Libraries Screening Centers Network [MLSCN]
NIH Chemical Genomics Center [NCGC]
PI Name: Dr. James Wells,
Dr. Enrique Perez-Paya, Dr.Janice Williams, Dr. Dennis Wolan, a person
The caspases (Cysteine Aspartyl Protease) comprise a related family of 14 dimeric proteases that are critical mediators of apoptosis (programmed cell death) and inflammation. The caspases represent an important class of drug targets for stroke, ischemia, cancer and inflammatory diseases. […] One goal of this project was to identify compounds that act as allosteric inhibitors via stabilizing the procaspase form of the enzyme. Previous work in Well's laboratory has shown that such allosteric inhibitors can be identified and these act by binding at the dimer interface of enzyme (Hardy, Lam et al., 2004).
The biochemical assay was configured using purified caspase 1 at a high enzyme concentration to promote formation of the homodimers and thus facilitate the identification of allosteric inhibitors. The overall goal was to identify reversible inhibitors with better drug-like properties than the currently available set of aspartyl-containing peptidomimetics that covalently bind the active site. Caspase 1 was assayed using the profluorescent substrate Ac-WEHD-AFC. After initiation of the assay with substrate the plates were rapidly read using an automated robotic system (Kalypsys, Inc.) to maintain consistent timing. A kinetic mode of detection was used where the initial rate was collected (estimated final product formation was ~10%). Compounds were screened as a concentration-titration series that ranged from 57 uM to 0.7 nM. Below is the protocol used for caspase 1.
NCGC Assay Protocol Summary:
Caspase 1 was prepared in buffer (50 mM HEPES pH 7.5, 50 mM KCl, 200 mM NaCl, 10 mM DTT, 0.1% CHAPS) at a concentration of 66.6 nM and 3 uL was dispensed to all wells using black solid Kalypsys 1536-well plates. 20 nL of DMSO containing compounds was added using a pin-tool (Kalypsys Inc.) to columns 5-48. Then 20 nL of DMSO solution from a control plate was added to columns 1-4. Controls were: Column 1, 16 point titration with each concentration in duplicate (1:1 dilutions in DMSO; final starting concentration was 57 uM) of the caspase 1 inhibitor Ac-WEHD-CHO (Alexis Biochemicals); Column 2, a 16 point titration with each concentration in duplicate of the free AFC fluorophore prepared in DMSO (Alexis Biochemicals), final starting was 40 uM; Column 3 neutral (DMSO only) control; Column 4: DMSO alone, to serve as a negative control (no substrate was added). Then 1 uL of 20 uM the substrate Ac-WEHD-AFC (Alexis Biochemicals) prepared in the same buffer was dispensed to all wells except columns 2 and 4 and the plates were immediately transferred (< 1 min) to the Viewlux. The plates were then exposed using 405 nm excitation/520 nm emission filters for 4 sec and read at 20 sec intervals for 3 min. Final enzyme concentration was 50 nM and the final substrate concentration was 5 uM.
Concentration-response curves were fitted to the data calculated from slope of the linear regression of fluorescent intensity versus time (the rate). The concentration-effect curves were then classified based on curve quality (r2), response magnitude and degree of measured activity. […] Inconclusive compounds had appreciable concentration-dependent effects on both the measured rate and the interpolated basal fluorescence intensity at the start of the reaction but where the basal fluorescent intensity was marginal (e.g. < 10-fold). Inconclusive compounds also encompass highly fluorescent compounds (>100-fold increases in fluorescent intensities values relative to controls) where artificial concentration-dependent decreases in the rate occurred at high compound concentrations due to fluorescent interferences.
Keywords: Caspase 1, proteases, profluorescent, MLSMR, MLSCN, NIH Roadmap, qHTS, NCGC
(qHTS replaces the single test concentration by a dilution series.)
For the compound `N#CC1(Nc2ccccc2)CCN(CCc2ccccc2)CC1`, the activity change, negative = inhibition was inactive: -1.49%.

For the compound `NC1CCCCC1.NP(=O)(O)N(CCCl)CCCl`, the activity change, negative = inhibition was inactive: 1.09% [at 11.5 µM].

As to `CCOP(=O)(Cl)Cl`, the activity change, negative = inhibition is inactive: -0.129%.

For the compound `O=C(OC1CN2CCC1CC2)C1c2ccccc2Oc2ccccc21` (stereo unspecified), the activity change, negative = inhibition was inactive: -5.86%.

In the case of `COc1ccc(NC2CCN(CCc3ccccc3)CC2)c(OC)c1`, the activity change, negative = inhibition is inactive: -2.04%.

Take `Fc1ccccc1NC1CCN(Cc2ccccc2)CC1`: the activity change, negative = inhibition was inactive: -1.62%.

In the case of `CCC(CO)(C(=O)OC1CN2CCC1CC2)c1ccccc1` (stereo unspecified), the activity change, negative = inhibition is inactive: -0.313%.

For the compound `O=C(O)C1(Nc2ccccc2)CCN(Cc2ccccc2)CC1`, the activity change, negative = inhibition was inactive: 2.02% [at 11.5 µM].

Turning to `CCOc1ncccc1C(=O)NCC1(N2CCOCC2)CCCCC1`, the activity change, negative = inhibition is inactive: -0.0827%.

For `N/C(=N\O)c1c(N)no[n+]1[O-]`, the activity change, negative = inhibition was inactive: -1.14%.

As to `ClCCOP(OCCCl)OCCCl`, the activity change, negative = inhibition is inactive: -4.61%.
